Experimental data from PMC5740381 (Antimicrobial Agents and Chemotherapy, 2017).

Amino acid sequences for entries named in this document (tags omitted). Residues count along the entry.
UniProt O91936, 1028-2462: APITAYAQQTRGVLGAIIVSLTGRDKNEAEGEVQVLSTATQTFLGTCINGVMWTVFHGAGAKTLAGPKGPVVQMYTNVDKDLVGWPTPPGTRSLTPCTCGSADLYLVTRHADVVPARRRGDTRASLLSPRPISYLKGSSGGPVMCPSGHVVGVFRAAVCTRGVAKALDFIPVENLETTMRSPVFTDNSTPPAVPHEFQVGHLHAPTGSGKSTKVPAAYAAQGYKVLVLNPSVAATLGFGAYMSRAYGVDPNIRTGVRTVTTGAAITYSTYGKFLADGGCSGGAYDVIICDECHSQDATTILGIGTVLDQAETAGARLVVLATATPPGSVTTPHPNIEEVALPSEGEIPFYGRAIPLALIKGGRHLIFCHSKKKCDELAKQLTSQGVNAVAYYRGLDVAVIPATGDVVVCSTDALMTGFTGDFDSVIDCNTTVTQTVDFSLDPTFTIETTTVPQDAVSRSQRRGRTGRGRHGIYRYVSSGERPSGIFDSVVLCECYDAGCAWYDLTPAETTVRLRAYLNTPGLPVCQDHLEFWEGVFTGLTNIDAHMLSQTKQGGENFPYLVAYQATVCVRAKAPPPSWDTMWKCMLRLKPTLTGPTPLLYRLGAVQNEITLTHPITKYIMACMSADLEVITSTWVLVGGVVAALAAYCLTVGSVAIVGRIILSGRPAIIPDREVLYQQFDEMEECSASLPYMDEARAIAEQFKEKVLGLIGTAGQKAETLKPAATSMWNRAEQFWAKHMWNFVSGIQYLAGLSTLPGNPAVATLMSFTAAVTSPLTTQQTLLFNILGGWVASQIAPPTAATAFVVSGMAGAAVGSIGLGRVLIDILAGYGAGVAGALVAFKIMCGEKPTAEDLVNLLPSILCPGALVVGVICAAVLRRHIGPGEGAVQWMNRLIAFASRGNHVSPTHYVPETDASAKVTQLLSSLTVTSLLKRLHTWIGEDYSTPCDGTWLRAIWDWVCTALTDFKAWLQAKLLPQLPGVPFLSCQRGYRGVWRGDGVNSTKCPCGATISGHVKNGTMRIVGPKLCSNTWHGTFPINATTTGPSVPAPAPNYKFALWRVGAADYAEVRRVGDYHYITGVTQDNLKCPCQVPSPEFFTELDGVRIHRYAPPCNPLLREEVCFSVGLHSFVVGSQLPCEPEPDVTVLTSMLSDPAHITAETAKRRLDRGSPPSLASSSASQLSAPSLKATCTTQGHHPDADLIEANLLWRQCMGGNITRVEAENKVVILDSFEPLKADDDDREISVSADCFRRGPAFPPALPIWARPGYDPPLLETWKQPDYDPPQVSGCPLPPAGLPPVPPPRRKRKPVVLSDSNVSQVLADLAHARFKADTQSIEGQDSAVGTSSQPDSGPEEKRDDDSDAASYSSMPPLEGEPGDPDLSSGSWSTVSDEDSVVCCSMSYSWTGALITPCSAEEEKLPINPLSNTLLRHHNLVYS

Columns and labels:
GT2b / 2b Wild type = system: T1, GT2b / 2b Wild type; test: Luciferase reporter assay of HCV replication in stable subgenomic replicon cells, 5% fetal bovine serum, no human plasma (at least 3 experiments).; assay type: cell-based, Huh-7; details: SD, n = 3; read-out: HCV stable replicons in 0% human plasma, Mean EC50 ± SD
T1 construct: NS3 protease domain (N-terminal 251 aa) in genotype 2a JFH-1 chimeric replicon
Source text: (§1) . Five of these nine cell lines have been described previously, including those transfected with genotypes 1a H77, 1b Con1, 3a, 4a, and 6a ([28]). The other four cell lines were established by transfecting cells with a nonchimeric genotype 2a JFH-1 replicon (GenBank accession number AB047639), two genotype 2a JFH-1 chimeric replicons containing either a genotype 2b NS3 protease domain (N-terminal 251 amino acids) or a sequence encoding full-length NS3 through the first 39 amino acids of NS5B from genotype 5a (strain SA13), and one chimeric replicon with a genotype 1b Con1 backbone containing full-length NS3 and NS4A sequences from genotype 6e. The genotype 2b and 6e NS3 sequences were each synthetically constructed based on a consensus sequence derived from the alignment of 15 genotype 2b and 4 genotype 6e sequences, respectively. […] The inhibitory effect of the PIs on HCV replication in replicon cells was determined in Dulbecco's modified Eagle medium containing 5% fetal bovine serum with or without 40% human plasma (Bioreclamation, Westbury, NY). The EC50s were determined using nonlinear regression curve fitting as described previously ([33]).

GT5a SA13 / 5a Wild type [1] = molecular target: T2, GT5a SA13 / 5a Wild type (Hepatitis C virus SA13, UniProt O91936); test: cell-based; parameters: species or system Huh-7; details: SD, n = 3
T2 construct: full-length NS3 through first 39 aa of NS5B in genotype 2a JFH-1 chimeric replicon

GT5a SA13 / 5a Wild type [2] = molecular target: T2, GT5a SA13 / 5a Wild type; test: cell-based; parameters: species or system Huh-7; details: SD, n = 3; remark: listed apart in the source
[3] = system: HCV subgenomic stable replicon GT2b; test: Stable HCV replicon luciferase assay in Huh-7 cells; assay type: cell-based, Hepatitis C virus; details: 0% human plasma, read-out: Mean EC50 ± SD
Source text: as §1

[4] = system: HCV subgenomic stable replicon GT5a SA13; assay type: cell-based, Hepatitis C virus; details: 0% human plasma, read-out: Mean EC50 ± SD

SMILES | EC50 (GT2b / 2b Wild type) [nM] | EC50 (GT5a SA13 / 5a Wild type [1]) [nM] | EC50 (GT5a SA13 / 5a Wild type [2]) [nM] | EC50 [3] [nM] | EC50 [4] [nM]
C=C[C@@H]1C[C@]1(NC(=O)[C@@H]1C[C@@H]2CN1C(=O)[C@H](C(C)(C)C)NC(=O)O[C@@H]1C[C@H]1CCCCCc1nc3ccc(OC)cc3nc1O2)C(=O)NS(=O)(=O)C1CC1 [Grazoprevir, grazoprevir (MK-5172)] | 15 ± 2 | 2.1 ± 0.58 | 0.06 ± 0.02 | – | –
C=C[C@@H]1C[C@]1(NC(=O)[C@@H]1C[C@@H]2CN1C(=O)[C@H](C(C)(C)C)NC(=O)O[C@@H]1C[C@H]1CCCCCc1nc3ccc(OC)cc3nc1O2)C(=O)NS(=O)(=O)C1CC1 [Grazoprevir] | – | – | – | 15 ± 2 | 2.1 ± 0.58
